{"source": "patent US20090214627", "molecular_target": "T1, GST-hBVR fusion protein, wild type (human biliverdin reductase fused to glutathione-S-transferase)", "T1 chain": "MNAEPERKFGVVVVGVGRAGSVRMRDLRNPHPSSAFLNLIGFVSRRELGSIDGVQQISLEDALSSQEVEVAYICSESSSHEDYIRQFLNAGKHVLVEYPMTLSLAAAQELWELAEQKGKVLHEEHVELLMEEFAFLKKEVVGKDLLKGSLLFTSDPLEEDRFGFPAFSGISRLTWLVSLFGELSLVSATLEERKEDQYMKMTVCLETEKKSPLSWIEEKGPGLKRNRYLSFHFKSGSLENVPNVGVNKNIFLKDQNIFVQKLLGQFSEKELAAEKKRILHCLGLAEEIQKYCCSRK"}
{"protein": "Insulin receptor beta (IRK), 48 kDa cytoplasmic domain of the beta-subunit (protein) RKRQPDGPLGPLYASSNPEYLSASDVFPCSVYVPDEWEVSREKITLLRELGQGSFGMVYEGNARDIIKGEAETRVAVKTVNESASLRERIEFLNEASVMKGFTCHHVVRLLGVVSKGQPTLVVMELMAHGDLKSYLRSLRPEAENNPGRPPPTLQEMIQMAAEIADGMAYLNAKKFVHRDLAARNCMVAHDFTVKIGDFGMTRDIYETDYYRKGGKGLLPVRWMAPESLKDGVFTTSSDMWSFGVVLWEITSLAEQPYQGLSNEQVLKFVMDGGYLDQPDNCPERVTDLMRMCWQFNPKMRPTFLEIVNLLKDDLHPSFPEVSFFHSEENKAPESEELEMEFEDMENVPLDRSSHCQREEAGGRDGGSSLGFKRSYEEHIPYTHMNGGKKNGRILTLPRSNPS", "values": [{"measurement": "BVR reductase activity after in vitro phosphorylation by IRK", "result": "BVR phosphorylation by IRK in vitro increases BVR reductase activity"}]}
